Test results: publication PMC8404221 (European journal of pharmaceutical sciences : official …, 2021)
Where “and” joins values, the source holds several entries; their conditions need not be identical. Identical values can stand only once.

Amino acid sequences for entries named in this document (tags omitted).
UniProt P21397, whole entry: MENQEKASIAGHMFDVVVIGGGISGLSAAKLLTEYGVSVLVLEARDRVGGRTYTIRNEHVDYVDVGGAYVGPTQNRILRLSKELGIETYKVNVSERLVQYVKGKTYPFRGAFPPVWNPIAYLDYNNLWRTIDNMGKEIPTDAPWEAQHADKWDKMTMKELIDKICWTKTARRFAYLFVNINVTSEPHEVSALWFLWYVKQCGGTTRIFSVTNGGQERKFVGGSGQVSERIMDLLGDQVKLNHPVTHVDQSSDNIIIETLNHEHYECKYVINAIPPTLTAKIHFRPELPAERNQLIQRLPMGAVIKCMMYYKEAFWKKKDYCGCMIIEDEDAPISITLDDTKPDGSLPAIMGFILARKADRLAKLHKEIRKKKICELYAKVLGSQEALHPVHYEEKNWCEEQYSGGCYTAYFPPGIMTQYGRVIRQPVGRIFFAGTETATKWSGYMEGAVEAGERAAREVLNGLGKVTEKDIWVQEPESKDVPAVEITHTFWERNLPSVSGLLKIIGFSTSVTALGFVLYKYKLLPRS

Target: Monoamine oxidase-A (MAO-A) (Homo sapiens, UniProt P21397)
Assay: biochemical
Conditions: MAO-A IC50, MAO-A Glo

`c1ccc2c(c1)[nH]c1cnccc12` [Norharmane, norharmane] was tested. Which IC50 did it give?
The IC50 was 4.3 µM and 4.29 µM.
